CycPeptMPDB entries from one study

Values of Kelly et al. 2021, doi:10.1021/jacs.0c06115, as listed in CycPeptMPDB.

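Conditions beyond the assay type are not listed; see the original paper. Other peptides of the study may be missing here. Peptides that the database sets to -10, its floor, are left out.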

PAMPA is the parallel artificial membrane permeability assay, which has no cells and reads passive diffusion. Permeability is given as log10 of P in cm/s; higher (less negative) is more permeable.

compound | PAMPA (log10 cm/s)
CC(=O)N1CCC[C@@H]1C(=O)N(C)[C@@H](CC(C)C)C(=O)N[C@@H]1C(=O)N(C)[C@@H](CC(C)C)C(=O)N(C)[C@@H](CC(C)C)C(=O)N(C)[C@H](CC(C)C)C(=O)N(C)[C@@H](C)C(=O)N[C@H](CC(C)C)C(=O)N2CCC[C@H]2C(=O)O[C@@H]1C | -6.31
CC(=O)N1CCC[C@@H]1C(=O)N(C)[C@@H](CC(C)C)C(=O)N[C@@H]1C(=O)N[C@@H](CC(C)C)C(=O)N[C@H](CC(C)C)C(=O)N(C)[C@@H](CC(C)C)C(=O)N(C)[C@@H](C)C(=O)N[C@H](CC(C)C)C(=O)N2CCC[C@H]2C(=O)O[C@@H]1C | -6.24
CC(=O)N1CCC[C@H]1C(=O)N(C)[C@H](CC(C)C)C(=O)N[C@@H]1C(=O)N[C@@H](CC(C)C)C(=O)N[C@H](CC(C)C)C(=O)N[C@H](CC(C)C)C(=O)N[C@H](C)C(=O)N[C@@H](CC(C)C)C(=O)N2CCC[C@@H]2C(=O)O[C@@H]1C | -6.72
CC(=O)N1CCC[C@@H]1C(=O)N(C)[C@@H](CC(C)C)C(=O)N[C@@H]1C(=O)N[C@H](CC(C)C)C(=O)N[C@H](CC(C)C)C(=O)N(C)[C@H](CC(C)C)C(=O)N(C)[C@@H](C)C(=O)N[C@@H](CC(C)C)C(=O)N2CCC[C@H]2C(=O)O[C@@H]1C | -5.82
CC(=O)N1CCC[C@@H]1C(=O)N(C)[C@@H](CC(C)C)C(=O)N[C@@H]1C(=O)N[C@H](CC(C)C)C(=O)N[C@H](CC(C)C)C(=O)N(C)[C@@H](CC(C)C)C(=O)N[C@@H](C)C(=O)N[C@H](CC(C)C)C(=O)N2CCC[C@H]2C(=O)O[C@@H]1C | -6.06
CC(=O)N1CCC[C@H]1C(=O)N(C)[C@@H](CC(C)C)C(=O)N[C@@H]1C(=O)N[C@H](CC(C)C)C(=O)N(C)[C@@H](CC(C)C)C(=O)N[C@H](CC(C)C)C(=O)N[C@@H](C)C(=O)N[C@H](CC(C)C)C(=O)N2CCC[C@H]2C(=O)O[C@@H]1C | -5.93
CC(=O)N1CCC[C@H]1C(=O)N(C)[C@H](CC(C)C)C(=O)N[C@@H]1C(=O)N(C)[C@@H](CC(C)C)C(=O)N(C)[C@H](CC(C)C)C(=O)N(C)[C@H](CC(C)C)C(=O)N(C)[C@@H](C)C(=O)N[C@@H](CC(C)C)C(=O)N2CCC[C@@H]2C(=O)O[C@@H]1C | -5.43
CC(=O)N1CCC[C@@H]1C(=O)N(C)[C@H](CC(C)C)C(=O)N[C@@H]1C(=O)N(C)[C@H](CC(C)C)C(=O)N[C@H](CC(C)C)C(=O)N[C@H](CC(C)C)C(=O)N(C)[C@H](C)C(=O)N[C@@H](CC(C)C)C(=O)N2CCC[C@H]2C(=O)O[C@@H]1C | -6.20
CC(=O)N1CCC[C@H]1C(=O)N(C)[C@@H](CC(C)C)C(=O)N[C@@H]1C(=O)N[C@H](CC(C)C)C(=O)N[C@H](CC(C)C)C(=O)N(C)[C@@H](CC(C)C)C(=O)N(C)[C@H](C)C(=O)N[C@@H](CC(C)C)C(=O)N2CCC[C@H]2C(=O)O[C@@H]1C | -6.08
CC(=O)N1CCC[C@H]1C(=O)N(C)[C@@H](CC(C)C)C(=O)N[C@@H]1C(=O)N[C@H](CC(C)C)C(=O)N[C@H](CC(C)C)C(=O)N(C)[C@H](CC(C)C)C(=O)N[C@@H](C)C(=O)N[C@@H](CC(C)C)C(=O)N2CCC[C@H]2C(=O)O[C@@H]1C | -6.37
CC(=O)N1CCC[C@@H]1C(=O)N(C)[C@@H](CC(C)C)C(=O)N[C@@H]1C(=O)N(C)[C@H](CC(C)C)C(=O)N[C@H](CC(C)C)C(=O)N(C)[C@H](CC(C)C)C(=O)N(C)[C@H](C)C(=O)N[C@H](CC(C)C)C(=O)N2CCC[C@H]2C(=O)O[C@@H]1C | -5.71
CC(=O)N1CCC[C@@H]1C(=O)N(C)[C@@H](CC(C)C)C(=O)N[C@@H]1C(=O)N[C@H](CC(C)C)C(=O)N(C)[C@H](CC(C)C)C(=O)N[C@@H](CC(C)C)C(=O)N[C@@H](C)C(=O)N[C@@H](CC(C)C)C(=O)N2CCC[C@@H]2C(=O)O[C@@H]1C | -5.93
CC(=O)N1CCC[C@H]1C(=O)N[C@@H]1C(=O)N[C@H](CC(C)C)C(=O)N[C@H](CC(C)C)C(=O)N[C@@H](CC(C)C)C(=O)N(C)[C@H](CC(C)C)C(=O)N(C)[C@@H](C)C(=O)N[C@@H](CC(C)C)C(=O)N2CCC[C@@H]2C(=O)O[C@@H]1C | -5.90
CC(=O)N1CCC[C@@H]1C(=O)N(C)[C@@H](CC(C)C)C(=O)N[C@@H]1C(=O)N[C@H](CC(C)C)C(=O)N[C@H](CC(C)C)C(=O)N[C@H](CC(C)C)C(=O)N[C@H](C)C(=O)N[C@H](CC(C)C)C(=O)N2CCC[C@H]2C(=O)O[C@@H]1C | -6.66
CC(=O)N1CCC[C@@H]1C(=O)N(C)[C@H](CC(C)C)C(=O)N[C@@H]1C(=O)N[C@H](CC(C)C)C(=O)N(C)[C@@H](CC(C)C)C(=O)N(C)[C@@H](CC(C)C)C(=O)N[C@@H](C)C(=O)N[C@H](CC(C)C)C(=O)N2CCC[C@H]2C(=O)O[C@@H]1C | -5.64
CC(=O)N1CCC[C@@H]1C(=O)N(C)[C@H](CC(C)C)C(=O)N[C@@H]1C(=O)N[C@H](CC(C)C)C(=O)N[C@@H](CC(C)C)C(=O)N[C@@H](CC(C)C)C(=O)N(C)[C@@H](C)C(=O)N[C@@H](CC(C)C)C(=O)N2CCC[C@H]2C(=O)O[C@@H]1C | -6.41

2 of these entries, quoted again:

compound	PAMPA (log10 cm/s)
CC(=O)N1CCC[C@@H]1C(=O)N(C)[C@@H](CC(C)C)C(=O)N[C@@H]1C(=O)N[C@H](CC(C)C)C(=O)N(C)[C@H](CC(C)C)C(=O)N[C@@H](CC(C)C)C(=O)N[C@@H](C)C(=O)N[C@@H](CC(C)C)C(=O)N2CCC[C@@H]2C(=O)O[C@@H]1C	-5.93
CC(=O)N1CCC[C@@H]1C(=O)N(C)[C@@H](CC(C)C)C(=O)N[C@@H]1C(=O)N[C@@H](CC(C)C)C(=O)N[C@H](CC(C)C)C(=O)N(C)[C@@H](CC(C)C)C(=O)N(C)[C@@H](C)C(=O)N[C@H](CC(C)C)C(=O)N2CCC[C@H]2C(=O)O[C@@H]1C	-6.24